Source: patent US20170128483A1, “HOST DEPENDENCY FACTORS AS TARGETS FOR ANTIVIRAL THERAPY” (Ruprecht-Karls-Universitat Heidelberg, priority 2014, published 2017)

System: DENV-2
Test: Virus yield inhibition assay, DENV-2 in Huh7 cells, titers by plaque assay
Conditions: Huh7, DENV-2 MOI 0.1, 48 h; concentration per compound as in Table 1

C[C@H](C[C@H](N)C(=O)O)C(=O)O [Methylglutamic acid, (2S,4R)-4-Methylglutamic acid]
Maximum effect on DENV replication (in words): inactive
